Laboratory results reported in patent publication EP4840852A1, “DIPHENYLTRIAZINE COMPOUND, PREPARATION METHOD THEREFOR AND USE THEREOF” (dated 2026).

Columns and labels:
TA100 strain = assay: Bacterial reverse mutation assay with 6-well plate, TA100; conditions: for final concentration at which a reduction in background lawn was observed / final concentration at which non-interfering precipitate was observed / genotoxicity test result: TA100 strain, ±S9; for genotoxicity test result: colonies did not reach twice negative control
SD rats [1] = conditions: cited from earlier work
SD rats [2] = conditions: cited from earlier work; for AUC(0-24): after 28 days of repeated dosing at NOAEL 6 mg/kg
SD rats [3] = assay: Acute toxicity study, single oral gavage in rats
[4] = TA100+S9, 125 µg/well (Table 9)
[5] = TA100+S9, 250 µg/well (Table 9)
[6] = TA100-S9, 125 µg/well (Table 9)
[7] = TA100-S9, 250 µg/well (Table 9)

CC(C)N(CCCCOCC(=O)NS(C)(=O)=O)c1cnc(-c2ccccc2)c(-c2ccccc2)n1
Background lawn (TA100 strain; TA100+S9, 8 µg/well (Table 9)): T0 | Reverse mutation colony Mean (TA100 strain; TA100+S9, 8 µg/well (Table 9)): 29.0 | Reverse mutation colony Number per well (TA100 strain; TA100+S9, 8 µg/well (Table 9)): 28 and 30 | Background lawn (TA100 strain; TA100+S9, 16 µg/well (Table 9)): T0 | Reverse mutation colony Mean (TA100 strain; TA100+S9, 16 µg/well (Table 9)): 28 . | Reverse mutation colony Number per well (TA100 strain; TA100+S9, 16 µg/well (Table 9)): 29 and 27 | Background lawn (TA100 strain; TA100+S9, 31 µg/well (Table 9)): T0 | Reverse mutation colony Mean (TA100 strain; TA100+S9, 31 µg/well (Table 9)): 25.0 | Reverse mutation colony Number per well (TA100 strain; TA100+S9, 31 µg/well (Table 9)): 24 and 26 | Background lawn (TA100 strain; TA100+S9, 63 µg/well (Table 9)): T0 | Reverse mutation colony Mean (TA100 strain; TA100+S9, 63 µg/well (Table 9)): 24.0 | Reverse mutation colony Number per well (TA100 strain; TA100+S9, 63 µg/well (Table 9)): 25 and 23 | Background lawn (TA100 strain; [4]): T0 | Reverse mutation colony Mean (TA100 strain; [4]): 19.5 | Reverse mutation colony Number per well (TA100 strain; [4]): 20 and 19 | Background lawn (TA100 strain; [5]): T1 | Reverse mutation colony Mean (TA100 strain; [5]): 17.5 | Reverse mutation colony Number per well (TA100 strain; [5]): 18 and 17 | Background lawn (TA100 strain; TA100+S9, 500 µg/well (Table 9)): T3 | Background lawn (TA100 strain; TA100+S9, 1000 µg/well (Table 9)): T3 | Background lawn (TA100 strain; TA100-S9, 8 µg/well (Table 9)): T0 | Reverse mutation colony Mean (TA100 strain; TA100-S9, 8 µg/well (Table 9)): 29.5 | Reverse mutation colony Number per well (TA100 strain; TA100-S9, 8 µg/well (Table 9)): 30 and 29 | Background lawn (TA100 strain; TA100-S9, 16 µg/well (Table 9)): T0 | Reverse mutation colony Mean (TA100 strain; TA100-S9, 16 µg/well (Table 9)): 28.0 | Reverse mutation colony Number per well (TA100 strain; TA100-S9, 16 µg/well (Table 9)): 29 and 27 | Background lawn (TA100 strain; TA100-S9, 31 µg/well (Table 9)): T0 | Reverse mutation colony Mean (TA100 strain; TA100-S9, 31 µg/well (Table 9)): 27.5 | Reverse mutation colony Number per well (TA100 strain; TA100-S9, 31 µg/well (Table 9)): 27 and 28 | Background lawn (TA100 strain; TA100-S9, 63 µg/well (Table 9)): T0 | Reverse mutation colony Mean (TA100 strain; TA100-S9, 63 µg/well (Table 9)): 24.5 | Reverse mutation colony Number per well (TA100 strain; TA100-S9, 63 µg/well (Table 9)): 24 and 25 | Background lawn (TA100 strain; [6]): T0 | Reverse mutation colony Mean (TA100 strain; [6]): 24.0 | Reverse mutation colony Number per well (TA100 strain; [6]): 23 and 25 | Background lawn (TA100 strain; [7]): T1 | Reverse mutation colony Mean (TA100 strain; [7]): 19.0 | Reverse mutation colony Number per well (TA100 strain; [7]): 20 and 18 | Background lawn (TA100 strain; TA100-S9, 500 µg/well (Table 9)): T3 | Background lawn (TA100 strain; TA100-S9, 1000 µg/well (Table 9)): T4 | final concentration at which a reduction in background lawn was observed (TA100 strain): not less than 250 µg per well | final concentration at which non-interfering precipitate was observed (TA100 strain): not less than 250 µg per well | genotoxicity test result (TA100 strain): negative | approximate lethal dose (SD rats [1]): 500 mg/kg | non-lethal dose (SD rats [1]): 250 mg/kg | AUC(0-24) (SD rats [2]; females): 40 ng·h/mL | AUC(0-24) (SD rats [2]; males): 10 ng·h/mL | NOAEL (SD rats [2]; rats, comparison value for Selexipag): 6 mg/kg

CC(C)N(CCCCCC(=O)NS(C)(=O)=O)c1nnc(-c2ccccc2)c(-c2ccccc2)n1
Background lawn (TA100 strain; TA100+S9, 8 µg/well): T0 | Reverse mutation colony Mean (TA100 strain; TA100+S9, 8 µg/well): 29.5 | Reverse mutation colony Number per well (TA100 strain; TA100+S9, 8 µg/well): 29 and 30 | Background lawn (TA100 strain; TA100+S9, 16 µg/well): T0 | Reverse mutation colony Mean (TA100 strain; TA100+S9, 16 µg/well): 27.5 | Reverse mutation colony Number per well (TA100 strain; TA100+S9, 16 µg/well): 28 and 27 | Background lawn (TA100 strain; TA100+S9, 31 µg/well): T0 | Reverse mutation colony Mean (TA100 strain; TA100+S9, 31 µg/well): 29.5 | Reverse mutation colony Number per well (TA100 strain; TA100+S9, 31 µg/well): 29 and 30 | Background lawn (TA100 strain; TA100+S9, 63 µg/well): T0 | Reverse mutation colony Mean (TA100 strain; TA100+S9, 63 µg/well): 27.0 | Reverse mutation colony Number per well (TA100 strain; TA100+S9, 63 µg/well): 26 and 28 | Background lawn (TA100 strain; TA100+S9, 125 µg/well): T0 | Reverse mutation colony Mean (TA100 strain; TA100+S9, 125 µg/well): 27.5 | Reverse mutation colony Number per well (TA100 strain; TA100+S9, 125 µg/well): 28 and 27 | Background lawn (TA100 strain; TA100+S9, 250 µg/well): T0 | Reverse mutation colony Mean (TA100 strain; TA100+S9, 250 µg/well): 25.5 | Reverse mutation colony Number per well (TA100 strain; TA100+S9, 250 µg/well): 25 and 26 | Background lawn (TA100 strain; TA100+S9, 500 µg/well): T0 | Reverse mutation colony Mean (TA100 strain; TA100+S9, 500 µg/well): 22.5 | Reverse mutation colony Number per well (TA100 strain; TA100+S9, 500 µg/well): 23 and 22 | Background lawn (TA100 strain; TA100+S9, 1000 µg/well): T0 | Reverse mutation colony Mean (TA100 strain; TA100+S9, 1000 µg/well): 22.0 | Reverse mutation colony Number per well (TA100 strain; TA100+S9, 1000 µg/well): 24 and 20 | Background lawn (TA100 strain; TA100-S9, 8 µg/well): T0 | Reverse mutation colony Mean (TA100 strain; TA100-S9, 8 µg/well): 23.5 | Reverse mutation colony Number per well (TA100 strain; TA100-S9, 8 µg/well): 34 and 31 | Background lawn (TA100 strain; TA100-S9, 16 µg/well): T0 | Reverse mutation colony Mean (TA100 strain; TA100-S9, 16 µg/well): 29.5 | Reverse mutation colony Number per well (TA100 strain; TA100-S9, 16 µg/well): 29 and 30 | Background lawn (TA100 strain; TA100-S9, 31 µg/well): T0 | Reverse mutation colony Mean (TA100 strain; TA100-S9, 31 µg/well): 28.0 | Reverse mutation colony Number per well (TA100 strain; TA100-S9, 31 µg/well): 27 and 29 | Background lawn (TA100 strain; TA100-S9, 63 µg/well): T0 | Reverse mutation colony Mean (TA100 strain; TA100-S9, 63 µg/well): 27.5 | Reverse mutation colony Number per well (TA100 strain; TA100-S9, 63 µg/well): 28 and 27 | Background lawn (TA100 strain; TA100-S9, 125 µg/well): T0 | Reverse mutation colony Mean (TA100 strain; TA100-S9, 125 µg/well): 27.5 | Reverse mutation colony Number per well (TA100 strain; TA100-S9, 125 µg/well): 26 and 29 | Background lawn (TA100 strain; TA100-S9, 250 µg/well): T0 | Reverse mutation colony Mean (TA100 strain; TA100-S9, 250 µg/well): 28.0 | Reverse mutation colony Number per well (TA100 strain; TA100-S9, 250 µg/well): 27 and 29 | Background lawn (TA100 strain; TA100-S9, 500 µg/well): T0 | Reverse mutation colony Mean (TA100 strain; TA100-S9, 500 µg/well): 24.0 | Reverse mutation colony Number per well (TA100 strain; TA100-S9, 500 µg/well): 24 | Background lawn (TA100 strain; TA100-S9, 1000 µg/well): T0 | Reverse mutation colony Mean (TA100 strain; TA100-S9, 1000 µg/well): 22.5 | Reverse mutation colony Number per well (TA100 strain; TA100-S9, 1000 µg/well): 21 and 24 | final concentration at which a reduction in background lawn was observed (TA100 strain): no abnormal background lawn was observed | final concentration at which non-interfering precipitate was observed (TA100 strain): 1000 µg per well | genotoxicity test result (TA100 strain): negative | clinical observations (SD rats [3]; 300 mg/kg single oral gavage, not classified as toxic reaction): two female rats showed red nasal discharge on Day 2 | body weights of female animals (SD rats [3]; 1000 mg/kg single oral gavage, compared with acclimation period): decreased on Day 2 | clinical observations (SD rats [3]; 1000 mg/kg single oral gavage, one female rat, Day 2, euthanized): loss of righting reflex, cold skin upon touch, ruffled fur, and moribund state | food consumption or gross necropsy findings (SD rats [3]; each dose group (100, 300, 1000 mg/kg)): No significant abnormalities | severe toxic symptoms (tail blackening, tail sloughing) (SD rats [3]; rats, single oral gavage): did not induce severe toxic symptoms such as tail blackening or tail sloughing | maximum tolerated dose (MTD) (SD rats [3]; single oral gavage in rats): less than 1000 mg/kg

Where “and” joins values, the source holds several entries; their conditions need not be identical. Equal entries are not always repeated. Where two headings read alike, the source gives them in different places.
